The text below walks through data of PubChem BioAssay AID588856 (National Center for Advancing Translational Sciences (NCATS), 2011).

The list shows a part of the results, in another mix than the full data. Active and inactive are the calls of the source. The call rests on the fitted dose curve; in most records, active means well fitted cell-killing curve with a large enough effect; inactive means no such curve, though single readings can be large or run the other way.

The nature of this test: qHTS for Inhibitors of TGF-b: Cytotox Counterscreen. The settings on record: HepG2 CAGA-GFP viability, ATP luminescence, 18 h; at 46.1 µM (top of the series). From the text:
TGF-b is a main component in the TGF-b signaling pathway which plays diverse roles in cellular and development pathways. TGF-b is mediated by transcription factors called "Smads". Although the Smad-dependent pathway is the primary canonical TGF-b signaling mode, TGF-b1 can also activate alternative signaling pathways, including those involving MAPK (ERK, JNK and p38). This interaction may mediate or enhance Smad-dependent responses, or can exert Smad-independent effects. The complexity of this signaling cascade allows the TGF-b superfamily to perform unique, overlapping or redundant functions. […] We aim to identify Smad3-small molecule antagonists using a quantitative high throughput screening (qHTS) approach. […]
Suspensions of trypsinized HEPG2 CAGA-GFP cells were dispensed into white, tissue culture-treated, solid 1536-well plates at 5uL/well (1000 cells/well final concentration) in DMEM medium supplemented with 1% FBS. […] Two uL of CellTiter Glo (Promega), a luminescence-based viability reagent, was dispensed, followed by a 10 minute room temperature incubation. The plates were then measured on a PerkinElmer ViewLux plate reader for luminescence (clear filter) using a 5 second exposure. The %Activity was determined from the corrected luminescence values. […]
Concentration-response curves were fitted to the signals arising from the resulting luminescence. […]
In general terms: Quantitative high-throughput screening tests each substance at several concentrations.
In the case of `CCC(=O)N(c1ccccc1)C1(COC)CCN(CCn2nnn(CC)c2=O)CC1`, the activity change, negative = cytotoxicity is inactive: 1.08%. With `CCC(=O)N(c1ccccc1)C1(COC)CCN(CCc2cccs2)CC1` the figure was inactive: -12.5%.
